# From PubChem BioAssay AID485281 (National Center for Advancing Translational Sciences (NCATS), 2010)
# Sequences of proteins named here, by UniProt entry; tags and fusion partners are left off. A change or cut given only in a name is not applied to a line headed by its entry.
# UniProt P02791: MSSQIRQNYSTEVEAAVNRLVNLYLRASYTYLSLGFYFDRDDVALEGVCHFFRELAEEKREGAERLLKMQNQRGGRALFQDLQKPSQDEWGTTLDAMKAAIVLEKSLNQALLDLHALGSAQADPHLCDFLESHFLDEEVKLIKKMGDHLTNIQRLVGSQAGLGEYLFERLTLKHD
# Where “and” joins values, the source holds several entries; their conditions need not be identical. Equal entries are not always repeated. The entries are a selection whose mix differs from that of the whole data set. Inconclusive results are not listed. Calls of active or inactive are those of the source. The call rests on the fitted dose curve; in most records, active means well fitted inhibition curve with a large enough effect; inconclusive means small, poorly fitted or top-dose-only effect; inactive means no such curve, though single readings can be large or run the other way.
# Target: Ferritin light chain (Equus caballus) (UniProt P02791)
# Experiment: qHTS Assay for Identification of Novel General Anesthetics; further: nearly all actives have a fitted effect of over 20% in size
# Settings: apoferritin/1-aminoanthracene competitive binding, fluorescence
# [1] = at 77.5 µM (top of the series) unless noted
# On the % scale 0 is the no-effect control and ±100 the full control effect.
smiles,measurement,setting,value
Cc1cc(SC(NC(=O)c2ccccc2)C(Cl)(Cl)Cl)nc(C(C)C)n1 (stereo unspecified),"activity change, negative = displacement",[1],inactive: -15.2%
CCCCOc1ccc(C(=O)NCC2(N3CCCCC3)CCCCC2)cc1OC,"activity change, negative = displacement",[1],inactive: 3.69%
CCOC(=O)Nc1ccc([As](=O)(O)O)c(O)c1,"activity change, negative = displacement",[1],inactive: 2.63%
Cc1cc(SC(NC=O)C(Cl)(Cl)Cl)ncn1 (stereo unspecified),"activity change, negative = displacement",[1],inactive: -5.09%
O=P(Nc1ccccn1)(c1cccc2ccccc12)c1cccc2ccccc12,"activity change, negative = displacement",[1],inactive: -16.8%
O=[N+]([O-])c1ccc(Nc2ccc(Oc3ccc([N+](=O)[O-])cc3[N+](=O)[O-])cc2)c([N+](=O)[O-])c1,"activity change, negative = displacement",[1],inactive: -5.16%
CCOC(=O)Nc1cccc([As](=O)(O)O)c1,"activity change, negative = displacement",[1],inactive: 23.3%
O=C(Nc1ccncc1[N+](=O)[O-])c1ccc([N+](=O)[O-])cc1[N+](=O)[O-],"activity change, negative = displacement",[1],inactive: -6.23%
O=C(COc1ccccc1)OC1CN2CCC1CC2 (stereo unspecified),"activity change, negative = displacement",[1],inactive: 1.74%
COP1(=S)c2c(C)nn(CCC#N)c2N=C(c2ccc(F)cc2)N1C (stereo unspecified),"activity change, negative = displacement",[1],inactive: -1.68%
CCC(C)N(CC(C)C)C(=S)SC(NC(C)=O)C(Cl)(Cl)Cl (stereo unspecified),"activity change, negative = displacement",[1],inactive: 2.46%
O=C(OC1CN2CCC1CC2)c1cccc([N+](=O)[O-])c1 (stereo unspecified),"activity change, negative = displacement",[1],inactive: 2.79%
CCOC(=O)c1ccc(NC(=O)C(C)(CCl)SC)cc1 (stereo unspecified),"activity change, negative = displacement",[1],inactive: 5.89%
COc1cc(I)ccc1[As](=O)(O)O,"activity change, negative = displacement",[1],inactive: -3%
COc1ccc2nc(NP(=O)(c3ccccc3)c3ccccc3)sc2c1,"activity change, negative = displacement",[1],inactive: -1.94%
Cc1c2c(nc3ccccc13)SC(C(Cl)Cl)C2 (stereo unspecified),"activity change, negative = displacement",[1],inactive: -12.3%
Cc1cc(=O)[nH]c(N[N+](=O)[O-])n1,"activity change, negative = displacement",[1],inactive: -4.87%
O=C(OC1CN2CCC1CC2)C12CC3CC(CC(C3)C1)C2 (stereo unspecified),"activity change, negative = displacement",[1],inactive: -11.6%
COc1ccc(N/C(=N/P(=O)(N2CCOCC2)N2CCOCC2)N2CCOCC2)cc1,"activity change, negative = displacement",[1],inactive: -1.45%
Cc1ccc(OP(=O)(Nc2ccc([N+](=O)[O-])cn2)Oc2ccc(C)cc2)cc1,"activity change, negative = displacement",[1],inactive: -3.33%
Cc1ccc2nc3c(c(C)c2c1)CC(C(Cl)Cl)S3 (stereo unspecified),"activity change, negative = displacement",[1],inactive: -2.86%
C[As](=O)(O)c1cccc(C(=O)O)c1,"activity change, negative = displacement",[1],inactive: -0.477%
O=[As](O)(c1ccc(O)cc1)c1ccccc1O,"activity change, negative = displacement",[1],inactive: -5.65%
CC(C)NC(=O)NP(=O)(Oc1ccccc1)Oc1ccccc1,"activity change, negative = displacement",[1],inactive: -5.14%
CCN(CC)C(=S)SC(NC=O)C(Cl)(Cl)Cl (stereo unspecified),"activity change, negative = displacement",[1],inactive: -16%
ClCCSc1nnc(-c2cccnc2)o1,"activity change, negative = displacement",[1],inactive: -2.95%
CC(C)c1ccc(OP(=O)(Nc2ccccn2)Oc2ccccc2F)cc1 (stereo unspecified),"activity change, negative = displacement",[1],inactive: -1.42%
O=C(O)COc1ccc([As](=O)(O)O)cc1[N+](=O)[O-],"activity change, negative = displacement",[1],inactive: 10.7%
Nc1ccccc1[As](=O)(O)c1ccccc1,"activity change, negative = displacement",[1],inactive: -7.29%
O=P(Nc1nccs1)(Oc1ccccc1)Oc1ccccc1,"activity change, negative = displacement",[1],inactive: -3.19%
O=P(Nc1nccs1)(c1ccccc1)c1nc2ccccc2s1 (stereo unspecified),"activity change, negative = displacement",[1],inactive: -8.62%
CCOP1(=S)c2c(C)nn(CCC#N)c2N=C(c2ccccc2F)N1C (stereo unspecified),"activity change, negative = displacement",[1],inactive: 0.133%
CS(=O)(=O)c1cc([N+](=O)[O-])c2no[n+]([O-])c2c1,"activity change, negative = displacement",[1],inactive: -11.3%
CCOP1(=S)c2c(C)nn(CCC#N)c2N=C(c2ccc(F)cc2)N1C (stereo unspecified),"activity change, negative = displacement",[1],inactive: -12.7%
CN(C(=O)Cc1ccccc1)[C@@H]1CC[C@]2(CCCO2)C[C@H]1N1CCCC1,"activity change, negative = displacement",[1],inactive: -11.8%
O=[N+]([O-])c1ccc2c(c1)nnn2O,"activity change, negative = displacement",[1],inactive: -4.1%
NC(=O)Nc1ccc([As](=O)(O)O)cc1,"activity change, negative = displacement",at 29.3 µM (top of the series),inactive: 3.6%
same,"activity change, negative = displacement",at 77.5 µM (top of the series),inactive: -5.47%
Cc1cccc(OCC(=O)OC2CN3CCC2CC3)c1 (stereo unspecified),"activity change, negative = displacement",[1],inactive: -6.94%
O=[As](O)(c1cccc(O)c1)c1cccc(O)c1,"activity change, negative = displacement",[1],inactive: 0.166%
CN(C(=O)Cc1ccc(Cl)c(Cl)c1)[C@@H]1CC[C@]2(CCCO2)C[C@H]1N1CCCC1,"activity change, negative = displacement",[1],inactive: -10.2%
O=C(OC1CN2CCC1CC2)c1ccc(Cl)cc1 (stereo unspecified),"activity change, negative = displacement",[1],inactive: -6.43%
CS(=O)(=O)c1ccc(Cl)c(NC(=O)COC(=O)C(O)(c2ccccc2)c2ccccc2)c1,"activity change, negative = displacement",[1],inactive: -16.7%
O=[As](O)(O)c1cccnc1,"activity change, negative = displacement",[1],inactive: 1.16%
COc1cc(C(=O)NCC2(N3CCOCC3)CCCCC2)cc(Cl)c1OC(C)C,"activity change, negative = displacement",[1],inactive: -4.72%
CCOP(=O)(Nc1cccc2ccccc12)OCC,"activity change, negative = displacement",[1],inactive: -15.1%
COc1cc(C2NCCC3(OCCO3)C2(C)C)cc(OC)c1OC (stereo unspecified),"activity change, negative = displacement",[1],inactive: -2.26%
Cc1ccc(NCCc2c([N+](=O)[O-])cc([N+](=O)[O-])cc2[N+](=O)[O-])cc1,"activity change, negative = displacement",[1],inactive: -20.7%
Nc1cccc2c([As](=O)(O)O)cccc12,"activity change, negative = displacement",[1],inactive: 82.1%
CCCOP(=S)(Nc1nc(N)cc(=O)[nH]1)OCCC,"activity change, negative = displacement",[1],inactive: -0.44%
CC(C)(C)C(=O)NC(Sc1ncccn1)C(Cl)(Cl)Cl (stereo unspecified),"activity change, negative = displacement",[1],inactive: -7.88%
Clc1n[nH]nc1-c1nn[nH][15n]1,"activity change, negative = displacement",[1],inactive: -4.53%
CCOP(=O)(NC(=NC(C)c1ccccc1)NC(C)c1ccccc1)OCC (stereo unspecified),"activity change, negative = displacement",[1],inactive: -8.92%
CCC1=CC2Cc3nc4ccc(Cl)cc4c(N)c3C(C1)C2 (stereo unspecified),"activity change, negative = displacement",[1],inactive: -14.4%
O=P1(Nc2ccccn2)COc2ccccc2OC1,"activity change, negative = displacement",[1],inactive: 4.73%
CCOP(=O)(Nc1ccc(C)cn1)OCC,"activity change, negative = displacement",[1],inactive: -0.0129%
CN(C(=O)Cc1ccc(Cl)c(Cl)c1)[C@@H]1CCCC[C@H]1N1CCCC1,"activity change, negative = displacement",[1],inactive: -2.27% and inactive: -9.08%
CC(C)/C=N\N=C(\N)N[N+](=O)[O-],"activity change, negative = displacement",[1],inactive: -7.64%
O=[As](O)(c1ccccc1Br)c1ccccc1Br,"activity change, negative = displacement",[1],inactive: 9.97%
CN(C)C1(CNC(=O)c2ccc(S(C)(=O)=O)cc2)CCCCC1,"activity change, negative = displacement",[1],inactive: 0.559%
O=C(/C=C/c1ccccc1)OC1CN2CCC1CC2 (stereo unspecified),"activity change, negative = displacement",[1],inactive: -7.19%
Cc1ccc(C(=O)OC2CN3CCC2CC3)cc1 (stereo unspecified),"activity change, negative = displacement",[1],inactive: -10.8%
Cc1nn(-c2ccccc2)c2c1P(=O)(N1CCOCC1)N(C)C(c1ccccc1)=N2 (stereo unspecified),"activity change, negative = displacement",[1],inactive: -0.391%
Nc1cccc([As](=O)(O)c2ccccc2)c1,"activity change, negative = displacement",[1],inactive: 2.8%
Cc1ccc(OCC(=O)OC2CN3CCC2CC3)cc1 (stereo unspecified),"activity change, negative = displacement",[1],inactive: 3.11%
O=[As](O)(c1cccs1)c1cccs1,"activity change, negative = displacement",[1],inactive: -4.56%
O=P1(Nc2ccc(Br)cn2)COc2ccccc2OC1,"activity change, negative = displacement",[1],inactive: -15.6%
O=P1(Nc2ncccn2)COc2ccccc2OC1,"activity change, negative = displacement",[1],inactive: 5.75%
CN(C(=O)Cc1ccccc1)[C@H]1CC[C@@]2(CCCO2)C[C@@H]1N1CCCC1,"activity change, negative = displacement",[1],inactive: -2.78%
C[C@H]1OP(=O)(Oc2ccccc2)[C@H](O)[C@H](O)[C@H]1N=[N+]=[N-] (stereo partly specified),"activity change, negative = displacement",[1],inactive: 1.86%
O=P(Nc1nc2ccccc2s1)(c1ccccc1)c1ccccc1,"activity change, negative = displacement",[1],inactive: -0.919%
CN(C)C1(CNC(=O)c2ccc(Cl)c(S(N)(=O)=O)c2)CCCCC1,"activity change, negative = displacement",[1],inactive: -1.37%
O=P(Nc1ccccn1)(c1ccc(Br)cc1)c1ccc(Br)cc1,"activity change, negative = displacement",[1],inactive: -10.9%
O=C(OC1CN2CCC1CC2)c1cccc(Cl)c1 (stereo unspecified),"activity change, negative = displacement",[1],inactive: 2.02%
C(Cc1nn[nH]n1)Cc1nn[nH]n1,"activity change, negative = displacement",[1],inactive: 37.4%
Nc1ccc([As](=O)(O)c2ccc([N+](=O)[O-])cc2)cc1,"activity change, negative = displacement",[1],inactive: 0.844%
O=[As](O)(c1ccccc1)c1ccc(O)cc1,"activity change, negative = displacement",[1],inactive: 2.05%
CC(=O)NC(SC(=S)N(C)C)C(Cl)(Cl)Cl (stereo unspecified),"activity change, negative = displacement",[1],inactive: -2.52%
O=[N+]([O-])c1ncn(CCn2cnc([N+](=O)[O-])n2)n1,"activity change, negative = displacement",[1],inactive: -7.99%
O=[N+]([O-])c1ccc(O)c(/C=N/Nc2ccc([N+](=O)[O-])cc2[N+](=O)[O-])c1,"activity change, negative = displacement",[1],inactive: -11.3%
c1nnnn1CCn1cnnn1,"activity change, negative = displacement",[1],inactive: -5.16%
CCC(C)(OOC(C)(C)C)OOC(C)(C)C,"activity change, negative = displacement",[1],inactive: -4.83%
O=P(Nc1nccs1)(c1ccccc1)c1ccccc1,"activity change, negative = displacement",[1],inactive: -10.7%
CC(C)C(=O)NC(Sc1ccccc1)C(Cl)(Cl)Cl (stereo unspecified),"activity change, negative = displacement",[1],inactive: -0.91%
CCOc1ccc(C2=NCC(CBr)S2)cc1 (stereo unspecified),"activity change, negative = displacement",[1],inactive: -21.1%
CC(=O)Nc1ccc(Oc2c([N+](=O)[O-])cc([N+](=O)[O-])cc2[N+](=O)[O-])cc1,"activity change, negative = displacement",[1],inactive: -18.5%
CC(=O)Nc1ccc([As](=O)(O)O)c(O)c1,"activity change, negative = displacement",[1],inactive: 6.82%
C[C@H]1OP(=O)(Oc2ccccc2)C[C@@H]2O[C@@H]21 (stereo partly specified),"activity change, negative = displacement",[1],inactive: -9.86%
C[C@@H]1C=CCP(=O)(Oc2ccccc2)O1 (stereo partly specified),"activity change, negative = displacement",[1],inactive: -5.76%
CC(=O)c1ccc(N2CC2c2ccncc2)cc1 (stereo unspecified),"activity change, negative = displacement",[1],inactive: -8.6%
Cc1ccc(NP(=O)(Oc2cccc(C)c2)Oc2cccc(C)c2)nc1,"activity change, negative = displacement",[1],inactive: 11.8%
c1ccc(-c2nn[nH]n2)c(-c2nn[nH]n2)c1,"activity change, negative = displacement",[1],inactive: 2.53%
O=C(NC1CCS(=O)(=O)C1)NP(=S)(Oc1ccccc1)Oc1ccccc1 (stereo unspecified),"activity change, negative = displacement",[1],inactive: -15.2%
CCNC(=S)/N=C(\N)N[N+](=O)[O-],"activity change, negative = displacement",[1],inactive: -12%
O=c1c2cc([N+](=O)[O-])ccc2[nH]c2c([N+](=O)[O-])cc([N+](=O)[O-])cc12,"activity change, negative = displacement",[1],inactive: -22.6%
CN(C)C(=O)Oc1noc2ccccc12,"activity change, negative = displacement",[1],inactive: 1.8%
Cc1ccccc1OP(=O)(Nc1ccccn1)Oc1ccccc1C,"activity change, negative = displacement",[1],inactive: -6.87%
CCC(=O)N1C2C3N(C(=O)CC)C1C1N(C(=O)CC)C(C(N1C(=O)CC)N3C(=O)CC)N2C(=O)CC,"activity change, negative = displacement",[1],inactive: -8.91%
O=C(OC1CN2CCC1CC2)c1ccccc1 (stereo unspecified),"activity change, negative = displacement",[1],inactive: 5.69%
CC(=O)NC(SC(=S)N(CC(C)C)CC(C)C)C(Cl)(Cl)Cl (stereo unspecified),"activity change, negative = displacement",[1],inactive: -5.94%
Cc1ccc(OP(=O)(Nc2ccccn2)Oc2ccc(C)cc2)cc1,"activity change, negative = displacement",[1],inactive: -5.36%
